# Measured water solubility values of organic chemicals

From the experimental data distributed with OPERA 2.9.

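The numbers are reported measurements, compiled and curated for the OPERA QSAR suite. The files give a single number for a compound and property, which may rest on several reports. How each value was measured is not recorded, so precision varies. A value may pool stereoisomers or salt forms, and the file does not say which form was measured. Unmarked limits or estimates from the upstream databases cannot be ruled out.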

Water solubility is log10 of mol/L, nominally at 25 °C; higher is more soluble.

- Nc1ncnc2c1ncn2[C@H]1CC[C@@H](CO)O1: log solubility -2.526 (log10 mol/L)
- O=C(CCCN1CCC(O)(c2ccc(Cl)cc2)CC1)c1ccccc1: log solubility -4.709 (log10 mol/L)
- COC(=O)c1ccc(N(C)C)cc1: log solubility -3.3 (log10 mol/L)
- O=c1c2ccccc2c2cc3ccc4c(=O)c5c(Br)c(Br)ccc5c5cc6ccc1c2c6c3c45: log solubility -4.45 (log10 mol/L)
- CCCCCCCCCCCCCCCCCC(=O)CCCCCCCCCCCCCCCCC: log solubility -7.404 (log10 mol/L)
- CCCCCOC(=O)Nc1ccccc1: log solubility -3.959 (log10 mol/L)
- O=C(O)C1=C(CSc2nnnn2CS(=O)(=O)O)CS[C@@H]2[C@H](NC(=O)[C@H](O)c3ccccc3)C(=O)N12: log solubility -2.783 (log10 mol/L)
- CC(CCC(C)C(N)=O)C(N)=O (stereo unspecified): log solubility 0.375 (log10 mol/L)
- CCCCOCCOCCOC(=O)CCC(=O)OCCOCCOCCCC: log solubility -2.108 (log10 mol/L)
- CCCCCCCCCCCCOC(=O)C(C)O (stereo unspecified): log solubility -1.41 (log10 mol/L)
- CCCCOC(=O)c1ccccc1N=Nc1c(O)c(C(=O)Nc2ccc3[nH]c(=O)[nH]c3c2)cc2ccccc12: log solubility -8.214 (log10 mol/L)
- COc1cc(-c2ccc(/N=N/c3ccc4c(S(=O)(=O)[O-])cc(S(=O)(=O)[O-])c(N)c4c3O)c(OC)c2)ccc1/N=N/c1ccc2c(S(=O)(=O)[O-])cc(S(=O)(=O)[O-])c(N)c2c1O.[Na+].[Na+].[Na+].[Na+]: log solubility -1.395 (log10 mol/L)
- COC(=O)c1ccc(C(=O)Nc2cc(Cl)ccc2Cl)cc1/N=N/c1c(O)c(C(=O)Nc2ccccc2OC)cc2ccccc12: log solubility -8.175 (log10 mol/L)
- O=c1[nH]c2[nH]c(=S)[nH]c(=O)c2[nH]c1=O: log solubility -2.23 (log10 mol/L)
- S=c1ncc2nccnc2[nH]1: log solubility -2.36 (log10 mol/L)
- C[C@@H](SC(=S)S[C@H](C)C(=O)O)C(=O)O: log solubility -1.911 (log10 mol/L)
- CNc1ncnc2[nH]cnc12: log solubility -2.102 (log10 mol/L)
- C=CC(=O)OCCC(F)(F)C(F)(F)C(F)(F)C(F)(F)C(F)(F)C(F)(F)F: log solubility -6.041 (log10 mol/L)
- CCCCCCCCCCCCOC(=O)CS(=O)(=O)[O-].[Na+]: log solubility -0.975 (log10 mol/L)
- COC1=CC(=CNNC(N)=O)C=CC1=O: log solubility -3.542 (log10 mol/L)
- COC(=O)/C=C(\C)C(=O)O: log solubility -0.076 (log10 mol/L)
- CCCCCCN1CC(C(=O)OC)CC1=O (stereo unspecified): log solubility -1.246 (log10 mol/L)
- C=C(C)C(=O)OCCOC(=O)C(=C)C: log solubility -2.397 (log10 mol/L)
- Cc1ccccc1NC(=O)c1cc2ccccc2c(N=Nc2ccc(Cl)cc2[N+](=O)[O-])c1O: log solubility -7.563 (log10 mol/L)
- O=S([O-])c1ccccc1.O=S([O-])c1ccccc1.[Zn+2]: log solubility -2.593 (log10 mol/L)
- CC[C@H]1OC(=O)[C@H](C)[C@@H](O[C@H]2C[C@@](C)(OC)[C@@H](O)[C@H](C)O2)[C@H](C)[C@@H](O[C@@H]2O[C@H](C)C[C@H](N(C)C)[C@H]2O)[C@](C)(O)C[C@@H](C)C(=O)[C@H](C)[C@@H](O)[C@]1(C)O: log solubility -4.43 (log10 mol/L)
- NC(=O)CC(O)(CC(N)=O)C(N)=O: log solubility -0.845 (log10 mol/L)
- CCOC(=O)CCC(=O)C(CO)(N=C(C)O)C(=O)OCc1ccccc1 (stereo unspecified): log solubility -3.851 (log10 mol/L)
- COC(=O)CS(=O)(=O)c1ccc(Br)cc1: log solubility -2.48 (log10 mol/L)
- C[C@H]1O[C@H](O[C@H]2[C@H](O)[C@@H](O)[C@@H](O[C@@H]([C@H](O)[C@@H](O)C=O)[C@H](O)CO)O[C@@H]2CO)[C@H](O)[C@@H](O)[C@@H]1N[C@H]1C=C(CO)[C@@H](O)[C@H](O)[C@H]1O: log solubility -0.64 (log10 mol/L)
- Cc1c(Cl)cccc1Nc1ccccc1C(=O)O: log solubility -5.53 (log10 mol/L)
- Nc1ccc(S(=O)(=O)Nc2ncnc3nc[nH]c23)cc1: log solubility -4.349 (log10 mol/L)
- O=C(O)C1CCCCN1 (stereo unspecified): log solubility 0.386 (log10 mol/L)
- COc1ccccc1O: log solubility -1.155 (log10 mol/L)
- O=C(O)c1ccc(Br)o1: log solubility -1.939 (log10 mol/L)